We go through 1 compound from patent US10793549B2, “Sulfuryl-substituted benzoheterocyclic derivative, preparation method and medical use thereof” (SHANGHAI HAIYAN PHARMACEUTICAL TECHNOLOGY CO., LTD., priority 2016, dated 2020).

The chains behind the UniProt entries cited, without tags or fusion partners.
UniProt Q15910, whole entry Y641F: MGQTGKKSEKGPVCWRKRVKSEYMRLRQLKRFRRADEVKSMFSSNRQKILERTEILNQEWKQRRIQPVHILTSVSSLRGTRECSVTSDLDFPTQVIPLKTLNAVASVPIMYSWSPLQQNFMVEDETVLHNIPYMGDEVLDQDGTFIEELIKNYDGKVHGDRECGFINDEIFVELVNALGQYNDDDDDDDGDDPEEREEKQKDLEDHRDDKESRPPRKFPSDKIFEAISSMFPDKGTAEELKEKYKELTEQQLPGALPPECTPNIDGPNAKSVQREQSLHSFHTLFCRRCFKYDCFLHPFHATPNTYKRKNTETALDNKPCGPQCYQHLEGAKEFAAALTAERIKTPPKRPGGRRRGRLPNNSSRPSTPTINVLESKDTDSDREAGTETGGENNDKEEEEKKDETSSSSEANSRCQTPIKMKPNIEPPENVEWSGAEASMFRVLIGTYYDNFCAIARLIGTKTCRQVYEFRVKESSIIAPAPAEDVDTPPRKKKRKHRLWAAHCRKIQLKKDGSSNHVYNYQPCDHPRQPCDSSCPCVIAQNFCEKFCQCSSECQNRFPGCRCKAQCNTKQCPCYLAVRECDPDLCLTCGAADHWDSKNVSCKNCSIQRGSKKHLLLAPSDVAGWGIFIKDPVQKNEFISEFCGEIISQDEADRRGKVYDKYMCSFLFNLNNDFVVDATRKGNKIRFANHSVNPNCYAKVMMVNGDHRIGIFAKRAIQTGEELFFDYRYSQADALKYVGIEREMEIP

SMILES strings stand for the structures.

The target of this test is EZH2 Y641F (Homo sapiens (Human), UniProt Q15910, Y641F). The experiment in a line: In vitro methyltransferase activity test (LANCE Ultra). The settings on record: Recombinant PRC2 (EZH2-Y641F), 2.5 μM SAM/250 nM H3(1-50)K27me1, 3 hours, room temperature. It counts as biochemical. As for the experimental part:
Recombinant PRC2 (EZH2-Y641F) was purchased from Active motif company, S-adenosyl-methionine (SAM) and Poly-L-lysine (PLL) were purchased from Sigma-Aldrich company, and H3(1-50)K27me1 peptide was purchased from Cisbio company. The detection system uses LANCEUltra system (Perkinelmer company). In the enzyme activity test, compounds to be tested were diluted by 8 gradient points in a ratio of 1:3, and added into a reaction plate, then 100 ng recombinase was added. And then a buffer [20 mM Tris pH8.5, 2 mM MgCl2, 0.01% Tween-20, 1 mM TCEP] containing 2.5 μM SAM/250 nM H3 (1-50)K27me1 premixtures was added, thus the enzyme reaction was started at room temperature. After reacting for 3 hours, a test solution premixed with PLL, detection antibody and Ulight was added, and reacted for 1h at room temperature, then the fluorescence value was read on a Tecan infinite pro. IC50 was calculated by fitting a four-factor model in the XLfit software.
On the technique in general: In TR-FRET formats the signal depends on donor and acceptor labels being close together.

Regarding `C=CCC1(S(=O)(=O)n2cc(C)c3c(C(=O)NCc4c(C)cc(C)[nH]c4=O)cc(-c4ccc(N5CCN(C)CC5)nc4)cc32)CC1` [Compound G-2], the IC50 – broadly, the concentration that inhibits the measured activity by half – is 14 nM.
